Measurements: paper PMC6327999, “Hydroxyl-substituted double Schiff-base condensed 4-piperidone/cyclohexanones as potential anticancer agents with biological evaluation” (Journal of Enzyme Inhibition and Medicinal Chemistry, 2019)

Key:
Assay type in all cases: cell-based
[1] = system: human acute mononuclear granulocyte leukemia (THP-1); assay: Cytotoxicity, MTT assay, THP-1; conditions: quotient of the IC50 values towards nonmalignant LO2 cells
Source text: (§1) Compounds 2a–d, 3a–e, 4a–e, 5a–d, and 6a–c were screened against human neoplastic cell lines such as human lung carcinoma cells (A549), human gastric adenocarcinoma cells (SGC7901), human cervical carcinoma cells (HeLa), human liver hepatocellular carcinoma cell line (Hepg2), human chronic myelogenous leukemia cell line (K562), human acute mononuclear granulocyte leukemia (THP-1), human normal heptical cell line (LO2) (Table 1) using modified MTT assay (3-(4,5-dimethyl-2-thiazolyl)-2,5-diphenyl-2-H-tetrazolium bromide, MTT, Dojindo Laboratories, Tokyo, Japan). All cell lines were maintained at 37 °C in a humidified 5% CO2 and 95% air atmosphere. The HePG2 cell lines were cultured in DMEM containing 10% fetal bovine serum. Other cell lines were grown in medium 1640 and supplemented with 10% fetal bovine serum. The tested compounds and positive controls (Doxorubicin and Curcumin) were initially dissolved in dimethylsulfoxide (DMSO), and then the solutions were diluted 1:1000 in DMEM medium or 1640 medium, which final concentration of DMSO was always 0.1% (v/v). Controls were prepared with 0.1% DMSO (v/v) only. […] The optical density (OD) was measured by a multi-well plate reader (TECAN, Männedorf, Switzerland) at 570 nm. The results are expressed as a decrease in the cell viability (%) in comparison to untreated controls. […]

[2] = system: human gastric adenocarcinoma cells (SGC7901); assay: Cytotoxicity, MTT assay, SGC7901; conditions: quotient of the IC50 values towards nonmalignant LO2 cells
Source text: as §1

[3] = system: human chronic myelogenous leukemia cell line (K562); assay: Cytotoxicity, MTT assay, K562; conditions: quotient of the IC50 values towards nonmalignant LO2 cells
Source text: as §1

[4] = system: human cervical carcinoma cells (HeLa); assay: Cytotoxicity, MTT assay, HeLa; conditions: quotient of the IC50 values towards nonmalignant LO2 cells
Source text: as §1

[5] = system: human liver hepatocellular carcinoma cell line (Hepg2); assay: Cytotoxicity, MTT assay, HePG2; conditions: quotient of the IC50 values towards nonmalignant LO2 cells
Source text: as §1

[6] = system: human lung carcinoma cells (A549); assay: Cytotoxicity, MTT assay, A549; conditions: quotient of the IC50 values towards nonmalignant LO2 cells
Source text: as §1

[7] = system: human carcinoma cell lines A549, SGC7901, HePG2, HeLa, K562, THP-1; assay: Cytotoxicity, MTT assay, panel of human carcinoma cell lines (average / overall); conditions: average over the six carcinoma cell lines
Source text: as §1, with “serum.” for “serum. The tested compounds and positive controls (Doxorubicin and Curcumin) were initially dissolved in dimethylsulfoxide (DMSO), and then the solutions were diluted 1:1000 in DMEM medium or 1640 medium, which final concentration of DMSO was always 0.1% (v/v). Controls were prepared with 0.1% DMSO (v/v) only.”
The cytotoxicity activities against human carcinoma cell lines A549, SGC7901, HePG2, HeLa, K562, THP-1 and cytotoxicity toward LO2 cell lines were evaluated by MTT method. […]

With `COc1cccc2c1C(=O)c1c(O)c3c(c(O)c1C2=O)C[C@@](O)(C(=O)CO)C[C@@H]3O[C@H]1C[C@H](N)[C@H](O)[C@H](C)O1` [DOX, Doxorubicin, reference compound] the “THP-1 SI” value [1] was 12.8, the “SGC7901 SI” value [2] was 0.9 and the “K562 SI” value [3] was 3.9. The “HeLa SI” value [4] was 2.9, the “HePG2 SI” value [5] was 10.4 and the “A549 SI” value [6] was 1.6. For the same compound, the “Ave SI” value [7] was 5.4.
